Patent publication US6432984B1, “Pyrazolecarboxylic acid derivatives, their preparation, pharmaceutical compositions containing them” (Sanofi-Synthelabo, priority 1999, dated 2002)

The chains behind the UniProt entries cited, without tags or fusion partners.
UniProt P47746, whole entry: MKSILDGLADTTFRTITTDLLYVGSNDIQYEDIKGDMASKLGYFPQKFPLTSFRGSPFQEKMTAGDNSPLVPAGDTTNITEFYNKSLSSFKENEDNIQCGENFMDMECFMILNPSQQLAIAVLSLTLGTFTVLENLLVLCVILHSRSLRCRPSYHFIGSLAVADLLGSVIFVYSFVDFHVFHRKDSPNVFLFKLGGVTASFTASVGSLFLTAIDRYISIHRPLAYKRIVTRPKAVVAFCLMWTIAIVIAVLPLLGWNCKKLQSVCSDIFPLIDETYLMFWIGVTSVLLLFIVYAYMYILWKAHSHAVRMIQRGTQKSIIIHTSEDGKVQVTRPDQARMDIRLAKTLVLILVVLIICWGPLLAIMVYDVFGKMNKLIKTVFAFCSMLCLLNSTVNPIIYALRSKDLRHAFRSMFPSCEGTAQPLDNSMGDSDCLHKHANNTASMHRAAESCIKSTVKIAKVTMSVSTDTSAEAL

Biological target: T1, CB1 receptors present in the brain (Mus musculus, UniProt P47746)
T1 construct: from tissue; host or cells: mouse brain
Experiment: duration of occupation of the CB1 receptors present in the brain, in vivo after oral administration
Settings: mice, oral 10 mg/kg

% of occupation of the receptors, 1 hour (1 hour after administration): 69%
% of occupation of the receptors, 24 hours (24 hours after administration): 4%
SMILES: Cc1c(C(=O)NN2CCCCC2)nn(-c2ccc(Cl)cc2Cl)c1-c1ccc(Cl)cc1 [SR 141716, N-piperidino-5-(4-chlorophenyl)-1-(2,4-dichlorophenyl)-4-methylpyrazole-3-carboxamide]
